US20130245084A1, “CALCIUM-SENSING RECEPTOR-ACTIVE COMPOUNDS” (LEO PHARMA A/S, priority 2010, published 2013)

Protein sequences, listed by entry. Tags and fused reporters are not part of them. Residues count along the entry.
UniProt P41180, 20-1078 limits assumed: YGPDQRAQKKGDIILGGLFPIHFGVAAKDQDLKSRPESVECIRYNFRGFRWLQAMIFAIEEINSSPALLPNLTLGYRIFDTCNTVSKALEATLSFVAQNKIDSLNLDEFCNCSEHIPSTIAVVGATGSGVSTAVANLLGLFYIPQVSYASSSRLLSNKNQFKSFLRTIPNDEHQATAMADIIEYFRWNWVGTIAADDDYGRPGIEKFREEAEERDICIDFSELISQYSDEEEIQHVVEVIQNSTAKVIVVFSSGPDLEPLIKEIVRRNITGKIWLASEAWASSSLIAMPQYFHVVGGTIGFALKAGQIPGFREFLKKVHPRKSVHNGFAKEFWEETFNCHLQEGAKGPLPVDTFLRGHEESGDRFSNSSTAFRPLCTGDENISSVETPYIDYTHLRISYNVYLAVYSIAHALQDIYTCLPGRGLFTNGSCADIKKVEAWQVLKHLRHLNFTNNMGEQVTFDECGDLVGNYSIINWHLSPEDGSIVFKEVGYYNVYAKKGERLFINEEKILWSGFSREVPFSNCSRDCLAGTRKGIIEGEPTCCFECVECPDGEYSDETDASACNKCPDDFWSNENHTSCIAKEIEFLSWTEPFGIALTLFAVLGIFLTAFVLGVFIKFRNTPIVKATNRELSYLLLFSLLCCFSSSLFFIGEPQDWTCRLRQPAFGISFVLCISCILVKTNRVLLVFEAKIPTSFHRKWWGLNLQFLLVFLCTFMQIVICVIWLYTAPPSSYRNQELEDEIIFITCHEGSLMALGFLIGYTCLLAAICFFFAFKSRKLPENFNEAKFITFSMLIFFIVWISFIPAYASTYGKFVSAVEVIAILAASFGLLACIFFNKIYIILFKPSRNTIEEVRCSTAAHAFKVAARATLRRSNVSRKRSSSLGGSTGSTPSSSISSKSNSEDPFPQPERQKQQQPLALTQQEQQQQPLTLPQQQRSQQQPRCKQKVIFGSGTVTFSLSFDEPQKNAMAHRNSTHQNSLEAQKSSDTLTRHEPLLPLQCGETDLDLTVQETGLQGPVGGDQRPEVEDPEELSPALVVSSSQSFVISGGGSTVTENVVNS

The compounds below were run against human CaSR (Homo sapiens, UniProt P41180) (assay: Functional whole cell assay (modulation of human CaSR), IP1 accumulation in CHO-K1 cells). Details: read-out: Functional whole cell assay (modulation of human CaSR); CHO-K1 cells stably expressing human CaSR, final Ca2+ 1.9 mM, IP1 HTRF; concentration giving 50% of maximum agonistic response.
Description: The assay investigates a compound's functional ability to act as a biological positive modulator on the human CaSR. Activation of the receptor expressed on CHO-K1 cells is detected through the G alpha q pathway, the activation of phospholipase C and the accumulation of intracellular inositol phosphate (IP) as described earlier [Sandrine Ferry, Bruno Chatel, Robert H. Dodd, Christine Lair, Danielle Gully, Jean-Pierre Maffrand, and Martial Ruat. Effects of Divalent Cations and of a Calcimimetic on Adrenocorticotropic Hormone Release in Pituitary Tumor Cells. Biochemical and biophysical research Communications 238, 866-873 (1997)]. The human CaSR is stably expressed on a CHO-K1 cell clone, stimulated with a basal level of calcium and challenged with the tested compound. The level of IP1 is determined using the IP-One Terbium htrf kit (Cisbio, France). CHO-K1 cells not transfected with the CaSR fail to elicit an IP1 response upon calcium and/or compound stimulation.
The ORF coding for the human CaSR (genebank: NM_000388) was acquired from Invitrogen Corp, USA and subsequently cloned into the mammalian expression vector pCDA3.1.
CHO-K1 cells were transfected using Lipofectamine according to manufacturer's protocol (400.000 cells/well were seeded in a 6-well plate and transfected after 24 hours using 2 μg DNA and 5 μl lipofectamine). After another 24 hours the cells were detached, seeded and subjected to 1 mg/ml of G-418. Following 7 days growth single clones were picked, the CaSR expression evaluated using the 5C10 antibody against CaSR, the clones with the highest expression were selected and tested for functional response. […]
On the assay day, cells were thawed, harvested and resuspended to 4*10^6 cells/ml in stimulation buffer (containing: Hepes 10 mM, MgCl2 0.5 mM, KCl 4.2 mM, NaCl 146 mM, glucose 5.5 mM, LiCl 50 mM, BSA 0.5% at pH 7.4). […] Finally the plate was read using a Perkin Elmer EnVision, according to the protocol supplied by the IP-One assay kit manufacturer. The FRET ratio was calculated by dividing the 665 nm emission signal with that of the 615 nm. […]

EC50 | SMILES
200 to 1000 nM | C[C@@H](NC1CCCC(c2ccc(C(=O)NCCN(C)C)cc2)C1)c1cccc2ccccc12 (stereo partly drawn)
< 200 nM | CC(=O)NCCNC(=O)c1ccc(C2CCCC(N[C@H](C)c3cccc4ccccc34)C2)cc1 (stereo partly drawn)
200 to 1000 nM | C[C@@H](NC1CCCC(c2ccc(C(=O)NCCN3CCOCC3)cc2)C1)c1cccc2ccccc12 (stereo partly drawn)
